Laboratory results reported in patent US6790958B2, “Purine inhibitors of cyclin dependent kinase 2 & IKBA” (priority 1996, dated 2004).

Target: CDK2 (Homo sapiens, UniProt P24941)
Test: CDK2 assay (histone H1 phosphorylation, 32P-ATP filter assay)
Format: biochemical
Conditions: concentration required to inhibit CDK2 activity by 50%; histone H1, 30 μM ATP, 30° C., 30 min; read-out: IC50 (μg/mL) enzyme (converted)

## CC(C)n1cnc2c(NCc3ccc(F)cc3)nc(NCCN)nc21
  IC50: 495 nM
